Laboratory results from ChEMBL document CHEMBL4622845, “p62/SQSTM1, a Central but Unexploited Target: Advances in Its Physiological/Pathogenic Functions and Small Molecular Modulators” (J Med Chem, 2020).

Amino acid sequences for entries named in this document (tags omitted). A change or cut given only in a name is not applied to a line headed by its entry.
UniProt P23443: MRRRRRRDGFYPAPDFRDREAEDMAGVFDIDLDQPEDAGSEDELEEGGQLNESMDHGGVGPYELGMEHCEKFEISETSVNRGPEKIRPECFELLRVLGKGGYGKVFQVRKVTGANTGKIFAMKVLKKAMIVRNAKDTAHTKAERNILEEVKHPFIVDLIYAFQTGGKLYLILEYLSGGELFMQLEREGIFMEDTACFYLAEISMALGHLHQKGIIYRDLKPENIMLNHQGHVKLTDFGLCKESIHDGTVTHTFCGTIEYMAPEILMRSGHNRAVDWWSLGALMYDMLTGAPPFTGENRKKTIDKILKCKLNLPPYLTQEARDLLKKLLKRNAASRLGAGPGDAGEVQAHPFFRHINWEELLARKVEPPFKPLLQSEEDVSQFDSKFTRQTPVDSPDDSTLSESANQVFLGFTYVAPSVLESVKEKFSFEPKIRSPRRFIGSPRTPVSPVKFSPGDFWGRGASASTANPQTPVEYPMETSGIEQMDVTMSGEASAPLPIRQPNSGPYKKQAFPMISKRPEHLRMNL

Biological target: Ribosomal protein S6 kinase beta-1 (Homo sapiens, UniProt P23443)

IC50: 160 nM
Ki: 20 nM
SMILES: CCc1cncnc1N1CCN(Cc2nc3cc(C(F)(F)F)ccc3[nH]2)CC1
